# Key:
# The chains behind the UniProt entries cited, without tags or fusion partners. Residues count along the entry.
# UniProt Q13976, 1-686 isoform 2: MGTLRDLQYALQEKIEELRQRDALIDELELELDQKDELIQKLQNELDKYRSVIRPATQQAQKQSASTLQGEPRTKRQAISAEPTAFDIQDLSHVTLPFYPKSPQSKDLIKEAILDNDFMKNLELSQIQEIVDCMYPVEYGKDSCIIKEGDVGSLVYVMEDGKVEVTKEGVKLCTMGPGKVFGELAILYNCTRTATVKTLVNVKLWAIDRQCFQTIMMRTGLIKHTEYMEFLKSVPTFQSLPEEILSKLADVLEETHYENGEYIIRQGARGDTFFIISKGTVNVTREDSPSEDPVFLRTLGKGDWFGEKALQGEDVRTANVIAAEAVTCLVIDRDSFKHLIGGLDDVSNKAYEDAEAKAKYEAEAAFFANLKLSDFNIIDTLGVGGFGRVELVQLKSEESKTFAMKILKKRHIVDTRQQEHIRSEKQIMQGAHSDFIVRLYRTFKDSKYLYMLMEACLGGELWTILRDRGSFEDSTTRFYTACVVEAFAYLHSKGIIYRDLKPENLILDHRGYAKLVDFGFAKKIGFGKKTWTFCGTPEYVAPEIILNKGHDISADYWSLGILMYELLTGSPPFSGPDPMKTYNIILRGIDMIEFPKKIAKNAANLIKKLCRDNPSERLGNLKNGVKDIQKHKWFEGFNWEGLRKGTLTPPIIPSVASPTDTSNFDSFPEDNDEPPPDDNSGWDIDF
# UniProt O75116, 11-552 limits assumed: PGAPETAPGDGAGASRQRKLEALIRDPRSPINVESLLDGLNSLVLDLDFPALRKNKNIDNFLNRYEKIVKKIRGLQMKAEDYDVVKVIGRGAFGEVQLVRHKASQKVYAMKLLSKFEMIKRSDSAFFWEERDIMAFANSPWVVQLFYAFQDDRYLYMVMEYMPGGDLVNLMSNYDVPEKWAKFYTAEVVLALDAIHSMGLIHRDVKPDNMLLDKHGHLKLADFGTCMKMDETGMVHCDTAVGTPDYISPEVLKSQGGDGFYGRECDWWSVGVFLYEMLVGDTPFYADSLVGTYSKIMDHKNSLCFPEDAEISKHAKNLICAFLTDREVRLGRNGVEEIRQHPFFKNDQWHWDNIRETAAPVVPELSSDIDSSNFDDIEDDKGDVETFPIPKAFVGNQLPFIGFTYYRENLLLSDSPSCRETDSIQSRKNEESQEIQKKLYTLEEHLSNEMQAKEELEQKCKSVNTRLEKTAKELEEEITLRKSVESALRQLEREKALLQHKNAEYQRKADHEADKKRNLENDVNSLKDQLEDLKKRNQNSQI
# [1] = target: recombinant human PKG1-beta (Homo sapiens, UniProt Q13976); assay: Determination of Protein Kinase G inhibition (selectivity); conditions: from IC50 values, tested form: HCl
# [2] = target: human recombinant ROCK II (Homo sapiens, UniProt O75116); assay: Determination of Rho kinase inhibition (ROCK II, Caliper peptide phosphorylation assay); conditions: respective form (salt or free base) as obtained in the examples, 60 min at 32° C., tested form: HCl
# recombinant human PKA = recombinant human PKA (Homo sapiens, UniProt P17612); assay: Determination of Protein Kinase A inhibition (selectivity); conditions: from IC50 values, tested form: HCl
smiles,measurement,setting,value
"CCC(N)C1(C)CCC(Oc2cc3cc[nH]c(=O)c3cc2Cl)CC1 (single isomer, unassigned) [32]",Selectivity against PKG,[1],>300 fold
same,pIC50,[2],+++++++ (8.0 ≦ pIC50)
same,Selectivity against PKA,recombinant human PKA,>1000 fold
"CCC(N)C1(C)CCC(Oc2cc3cc[nH]c(=O)c3cc2Cl)CC1 (single isomer, unassigned) [33]",Selectivity against PKG,[1],>1000 fold
same,pIC50,[2],+++++++ (8.0 ≦ pIC50)
same,Selectivity against PKA,recombinant human PKA,>1000 fold

# Source: patent US8399482B2, “6-substituted isoquinolines and isoquinolinones” (Sanofi, priority 2008, dated 2013)
